Where a name gives a salt, the structure may show the parent alone.

Chains of the proteins cited; added tags and fusions are not shown. Lines headed by an entry give the natural chain unless they say otherwise; changes in a name come on top.
UniProt P20292: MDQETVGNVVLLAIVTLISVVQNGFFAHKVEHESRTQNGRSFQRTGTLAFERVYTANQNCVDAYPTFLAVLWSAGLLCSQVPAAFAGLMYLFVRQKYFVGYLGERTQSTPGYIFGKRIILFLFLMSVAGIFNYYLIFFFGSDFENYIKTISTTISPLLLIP

The assay has as its target human FLAP (Homo sapiens (Human), UniProt P20292). In words: FLAP binding assay (HTRF format). Here is the method:
The ability of the compounds of the present invention to treat a FLAP-mediated disease and/or disorder, or associated symptoms or complications thereof, was determined using the following procedures. Binding assay data represent the average value obtained from two different assay plates, with samples run in duplicate on each plate. Human whole blood assay data represent a single replicate on an assay plate using whole blood from at least one healthy donor.
Data are expressed as a HTRF ratio.

[1] abbreviates: human FLAP wild type, average of two plates, duplicates.

`Nc1cnc(-c2ccc(-c3ccccc3C(=O)NC3CCC(O)CC3)cc2F)cn1` (mixture of isomers) [Example 763, (cis/trans) 4′-(5-Aminopyrazin-2-yl)-3′-fluoro-N-(4-hydroxycyclohexyl)biphenyl-2-carboxamide]: the Ki (wild type FLAP) is 1110 nM. The molecule `CC1CN(C(=O)c2ccccc2-c2ccc(-c3cnc(N)cn3)c(F)c2)CC(C)O1` (mixture of isomers) [Example 773, 5-{2′-[(2,6-Dimethylmorpholin-4-yl)carbonyl]-3-fluorobiphenyl-4-yl}pyrazin-2-amine (diastereoisomeric mixture)] had a Ki (wild type FLAP) of 223 nM. Against the preceding molecule, the Ki is about 5-fold lower. As for `N#CC1CCCN(S(=O)(=O)c2ccccc2-c2ccc(-c3cnc(N)cn3)c(F)c2)C1` (racemic) [Example 63, racemic 1-{[4′-(5-Aminopyrazin-2-yl)-3′-fluorobiphenyl-2-yl]sulfonyl}piperidine-3-carbonitrile], under setting [1], the affinity corresponds to a Ki of 6 nM.

On to `Nc1cnc(-c2ccc(-c3ccccc3S(=O)(=O)N3CCCC(O)C3)cc2F)cn1` (racemic) [Example 70, racemic 1-{[4′-(5-Aminopyrazin-2-yl)-3′-fluorobiphenyl-2-yl]sulfonyl}piperidin-3-ol], for which the affinity under setting [1], expressed as Ki, was 2 nM.

For `Nc1cnc(-c2ccc(-c3ccccc3S(=O)(=O)N3CCCC(CO)C3)cc2F)cn1` (racemic) [Example 76, racemic (1-{[4′-(5-Aminopyrazin-2-yl)-3′-fluorobiphenyl-2-yl]sulfonyl}piperidin-3-yl)methanol], under setting [1], the Ki amounted to 2 nM. Under setting [1], `Nc1cnc(-c2ccc(-c3ccccc3S(=O)(=O)N3C[C@H](O)[C@@H](N4CCOCC4)C3)cc2F)cn1` (racemic) [Example 187, Racemic-1-{[4′-(5-Aminopyrazin-2-yl)-3′-fluorobiphenyl-2-yl]sulfonyl}-4-morpholin-4-ylpyrrolidin-3-ol trifluoroacetic acid salt] had a Ki of 66 nM. `Nc1ncc(-c2ccc(-c3ccccc3S(=O)(=O)N3CCCC(O)C3)cc2F)cc1F` (racemic) [Example 668, (racemic)-1-((4′-(6-Amino-5-fluoropyridin-3-yl)-3′-fluoro-[1,1′-biphenyl]-2-yl)sulfonyl)piperidin-3-ol] returned a Ki (wild type FLAP) of 23 nM. This lies in the double-digit nanomolar range.

Under “wild type FLAP”, `CCC(C)S(=O)(=O)c1ncccc1-c1ccc(-c2cnc(N)nc2)c(F)c1` (racemic) [Example 813, racemic 5-(4-(2-(sec-Butylsulfonyl)pyridin-3-yl)-2-fluorophenyl)pyrimidin-2-amine formate] registered a Ki of 33.9 nM. Still for that read-out and setting: the value for `CCC(C)S(=O)(=O)c1ncccc1-c1ccc(-c2cnc(N)cn2)c(F)c1` (racemic) [Example 814, racemic 5-(4-(2-(sec-Butylsulfonyl)pyridin-3-yl)-2-fluorophenyl)pyrazin-2-amine formate] was 2.8 nM. For `Nc1cnc(-c2ccc(-c3ccccc3S(=O)(=O)N[C@H]3CCCCNC3=O)cc2F)cn1` (stereo in doubt) [Example 28, (S)-4′-(5-Aminopyrazin-2-yl)-3′-fluoro-N-[(3S)-2-oxoazepan-3-yl]biphenyl-2-sulfonamide], the Ki under setting [1] is 90 nM. On the same count and under the same terms, the figure for `C[C@H](NS(=O)(=O)c1ccccc1-c1ccc(-c2cnc(N)cn2)c(F)c1)c1ccccc1` [Example 24, (R)-4′-(5-Aminopyrazin-2-yl)-3′-fluoro-N-[(1R)-1-phenylethyl]biphenyl-2-sulfonamide] is 2 nM. Take `NCCOc1ccccc1-c1ccc(-c2cnc(N)cn2)c(F)c1` [Example 640, 5-[2′-(2-Aminoethoxy)-3-fluorobiphenyl-4-yl]pyrazin-2-amine]: the Ki (wild type FLAP) turned out to be 1340 nM.

`CC(=O)NC1CCN(S(=O)(=O)c2ccccc2-c2ccc(-c3cnc(N)c(F)c3)c(F)c2)CC1` [Example 670, N-(1-((4′-(6-Amino-5-fluoropyridin-3-yl)-3′-fluoro-[1,1′-biphenyl]-2-yl)sulfonyl)piperidin-4-yl)acetamide] had a Ki (wild type FLAP) of 97.7 nM. Same read-out and setting: the figure for `N#Cc1nc(N)cnc1-c1ccc(-c2ccc(C(F)(F)F)cc2S(=O)(=O)N2CCNC(=O)C2)cc1F` [Example 715, 6-Amino-3-{3-fluoro-2′-[(3-oxopiperazin-1-yl)sulfonyl]-4′-(trifluoromethyl)biphenyl-4-yl}pyrazine-2-carbonitrile] is 8.2 nM; for `CC(C)(C)C(=O)CS(=O)(=O)c1ccccc1-c1ccc(-c2cnc(N)nc2)c(F)c1` [Example 717, 1-{[4′-(2-Aminopyrimidin-5-yl)-3′-fluorobiphenyl-2-yl]sulfonyl}-3,3-dimethylbutan-2-one] it is 1010 nM; for `CC(C)(C(N)=O)S(=O)(=O)c1ccccc1-c1ccc(-c2cnc(N)cn2)c(F)c1` [Example 736, 2-{[4′-(5-Aminopyrazin-2-yl)-3′-fluorobiphenyl-2-yl]sulfonyl}-2-methylpropanamide] it is 330 nM. Turning to `N#Cc1nc(N)cnc1-c1ccc(-c2ccccc2Oc2nccc(N)n2)cc1F` [Example 745, 6-Amino-3-{2′-[(4-aminopyrimidin-2-yl)oxy]-3-fluorobiphenyl-4-yl}pyrazine-2-carbonitrile], the Ki (wild type FLAP) was determined as 11.7 nM. Against the preceding molecule, the Ki is about 28-fold lower. With `Nc1cnc(-c2ccc(-c3ccccc3C(=O)NCCO)cc2F)cn1` [Example 760, 4′-(5-Aminopyrazin-2-yl)-3′-fluoro-N-(2-hydroxyethyl)biphenyl-2-carboxamide], the Ki (wild type FLAP) was 1160 nM. In turn, `COc1c(-c2ccccc2NS(C)(=O)=O)ccc(-c2cnc(N)cn2)c1F` [Example 837, N-[4′-(5-Aminopyrazin-2-yl)-3′-fluoro-2′-methoxybiphenyl-2-yl]methanesulfonamide] showed a Ki (wild type FLAP) of around 1750 nM.

The record behind these values is patent US9079866B2, “Flap modulators” (JANSSEN PHARMACEUTICA NV, priority 2013, dated 2015).
